According to ChEMBL document CHEMBL1131594, “Stereoisomers of cyclic urea HIV-1 protease inhibitors: synthesis and binding affinities” (J Med Chem, 1998):

Biological target: Human immunodeficiency virus type 1 protease (Human immunodeficiency virus 1, UniProt Q72874)
Assay: Compound was tested for binding affinity against HIV-1 protease.

**Q.** For `O=C1N(Cc2ccccc2)[C@H](Cc2ccccc2)[C@H](O)[C@H](O)[C@@H](Cc2ccccc2)N1Cc1ccccc1`, which Ki is on record?
**A.** The Ki was 6 nM.
